The text below walks through data of ChEMBL document CHEMBL2407041, “Identification of potent Yes1 kinase inhibitors using a library screening approach” (Bioorg Med Chem Lett, 2013).

The chains behind the UniProt entries cited, without tags or fusion partners.
UniProt P07947, whole entry: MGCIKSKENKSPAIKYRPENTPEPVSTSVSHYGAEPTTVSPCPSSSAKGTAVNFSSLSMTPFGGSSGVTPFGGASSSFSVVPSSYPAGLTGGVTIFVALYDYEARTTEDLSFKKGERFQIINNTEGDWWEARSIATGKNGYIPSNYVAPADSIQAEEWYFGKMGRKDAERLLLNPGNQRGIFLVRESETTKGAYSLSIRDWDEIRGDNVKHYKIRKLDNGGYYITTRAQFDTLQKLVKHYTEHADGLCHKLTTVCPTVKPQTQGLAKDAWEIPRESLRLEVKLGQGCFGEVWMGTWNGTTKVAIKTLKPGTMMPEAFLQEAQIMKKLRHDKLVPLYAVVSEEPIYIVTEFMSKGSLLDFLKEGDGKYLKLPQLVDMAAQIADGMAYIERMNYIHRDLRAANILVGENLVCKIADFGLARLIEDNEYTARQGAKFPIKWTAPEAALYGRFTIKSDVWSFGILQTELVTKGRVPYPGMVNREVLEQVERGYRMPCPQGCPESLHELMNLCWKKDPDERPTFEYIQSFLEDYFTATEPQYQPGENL

Assay [1] concerns the target T1, Tyrosine-protein kinase Yes (Homo sapiens, UniProt P07947). The assay is described as follows: Inhibition of Yes1 (unknown origin) by [gamma-33P]-ATP radiolabeled enzyme activity assay.
Assay [2] concerns the target T1, Tyrosine-protein kinase Yes. The assay is described as follows: Inhibition of Yes1 (unknown origin) assessed as kinase-dependent enzymatic production of ADP from ATP using coupled luminescence-based reaction by ADP-Glo kinase assay. On the technique in general: ADP-Glo first removes unused ATP, then detects ADP through luciferase.

Consider `CCN1CCN(Cc2ccc(-c3cc4c(N[C@H](C)c5ccccc5)ncnc4[nH]3)cc2)CC1` [AEE-788], for which the results for the 50% inhibitory concentration (IC50) in assay [1] and in assay [2] were 0.0131 µM and 0.0175 µM, respectively.

One may read the IC50 as the concentration that gives 50% inhibition.
